Literature values in publication PMC5916808 (Journal of medicinal chemistry, 2017).

By UniProt entry, the sequences of proteins in these tests, tags left out. Residues count along the entry.
UniProt Q62645, 28-1323: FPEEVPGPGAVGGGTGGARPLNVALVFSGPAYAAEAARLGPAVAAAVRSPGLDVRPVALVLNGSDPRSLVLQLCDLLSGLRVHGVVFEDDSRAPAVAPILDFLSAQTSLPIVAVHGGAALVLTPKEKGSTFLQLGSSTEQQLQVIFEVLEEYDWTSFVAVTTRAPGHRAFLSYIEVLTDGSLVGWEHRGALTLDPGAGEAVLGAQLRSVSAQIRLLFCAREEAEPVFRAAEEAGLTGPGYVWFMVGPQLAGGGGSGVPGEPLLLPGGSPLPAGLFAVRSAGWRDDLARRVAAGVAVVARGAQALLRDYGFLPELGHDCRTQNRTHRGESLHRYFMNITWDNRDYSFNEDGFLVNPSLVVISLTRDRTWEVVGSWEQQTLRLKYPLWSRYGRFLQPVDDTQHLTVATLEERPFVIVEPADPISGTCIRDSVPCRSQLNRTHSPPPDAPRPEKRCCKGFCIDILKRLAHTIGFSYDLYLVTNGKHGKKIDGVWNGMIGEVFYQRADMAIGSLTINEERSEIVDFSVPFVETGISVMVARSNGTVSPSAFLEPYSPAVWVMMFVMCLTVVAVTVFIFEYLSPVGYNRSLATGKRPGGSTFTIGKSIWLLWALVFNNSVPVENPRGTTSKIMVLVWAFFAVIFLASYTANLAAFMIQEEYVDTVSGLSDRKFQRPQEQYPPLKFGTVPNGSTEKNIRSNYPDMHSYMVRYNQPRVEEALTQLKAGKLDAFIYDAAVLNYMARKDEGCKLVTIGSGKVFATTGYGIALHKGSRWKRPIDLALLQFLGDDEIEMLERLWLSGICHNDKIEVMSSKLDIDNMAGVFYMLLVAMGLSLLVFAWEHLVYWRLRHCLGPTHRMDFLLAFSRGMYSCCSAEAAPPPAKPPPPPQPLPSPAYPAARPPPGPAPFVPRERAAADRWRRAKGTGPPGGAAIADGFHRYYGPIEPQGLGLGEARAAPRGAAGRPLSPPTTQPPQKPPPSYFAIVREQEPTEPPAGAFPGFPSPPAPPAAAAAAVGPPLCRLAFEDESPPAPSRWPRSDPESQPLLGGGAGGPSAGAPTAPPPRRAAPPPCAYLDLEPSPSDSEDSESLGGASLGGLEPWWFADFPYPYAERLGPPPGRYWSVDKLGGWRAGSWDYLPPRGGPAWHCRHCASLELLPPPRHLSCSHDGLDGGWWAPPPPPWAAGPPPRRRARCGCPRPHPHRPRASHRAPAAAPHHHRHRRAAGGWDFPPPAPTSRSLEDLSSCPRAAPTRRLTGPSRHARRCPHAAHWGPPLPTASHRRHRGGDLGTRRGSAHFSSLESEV
UniProt Q00961, 20-1237: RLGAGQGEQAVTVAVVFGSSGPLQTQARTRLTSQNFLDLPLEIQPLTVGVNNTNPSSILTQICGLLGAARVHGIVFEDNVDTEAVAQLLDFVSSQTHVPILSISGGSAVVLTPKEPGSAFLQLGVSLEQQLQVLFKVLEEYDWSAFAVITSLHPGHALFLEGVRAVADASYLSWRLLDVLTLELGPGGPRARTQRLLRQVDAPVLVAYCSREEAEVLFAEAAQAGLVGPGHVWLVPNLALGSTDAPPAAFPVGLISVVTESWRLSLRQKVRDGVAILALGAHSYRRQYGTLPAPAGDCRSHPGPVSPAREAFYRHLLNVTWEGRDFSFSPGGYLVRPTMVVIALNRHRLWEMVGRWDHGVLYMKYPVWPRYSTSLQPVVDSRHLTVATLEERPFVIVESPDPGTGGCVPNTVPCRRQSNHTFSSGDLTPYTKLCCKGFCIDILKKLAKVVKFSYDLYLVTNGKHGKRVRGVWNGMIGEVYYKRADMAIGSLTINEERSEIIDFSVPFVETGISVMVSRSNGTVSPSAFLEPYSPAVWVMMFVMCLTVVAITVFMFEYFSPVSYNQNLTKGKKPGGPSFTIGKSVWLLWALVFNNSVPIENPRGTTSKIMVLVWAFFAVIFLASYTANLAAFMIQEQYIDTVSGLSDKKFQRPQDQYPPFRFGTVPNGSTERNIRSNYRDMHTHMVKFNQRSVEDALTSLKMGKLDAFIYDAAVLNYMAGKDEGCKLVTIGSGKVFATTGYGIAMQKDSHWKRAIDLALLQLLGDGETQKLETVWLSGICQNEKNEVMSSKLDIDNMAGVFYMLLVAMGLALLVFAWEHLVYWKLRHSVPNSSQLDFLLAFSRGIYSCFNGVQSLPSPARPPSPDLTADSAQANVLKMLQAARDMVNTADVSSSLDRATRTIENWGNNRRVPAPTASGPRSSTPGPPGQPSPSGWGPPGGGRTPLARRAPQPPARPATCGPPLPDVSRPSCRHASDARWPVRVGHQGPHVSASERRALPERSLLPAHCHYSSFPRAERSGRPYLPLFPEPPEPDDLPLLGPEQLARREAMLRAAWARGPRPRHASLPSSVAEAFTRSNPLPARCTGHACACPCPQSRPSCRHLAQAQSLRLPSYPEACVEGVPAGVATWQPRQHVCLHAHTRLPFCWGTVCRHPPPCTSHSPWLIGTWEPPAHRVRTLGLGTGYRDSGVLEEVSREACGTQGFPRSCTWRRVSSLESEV

Key:
[1] = target: GluN1/GluN2D NMDA receptors (Rattus norvegicus, UniProt Q62645); details: read-out: EC50 GluN2D; previously published data; cited from earlier work
[2] = target: GluN1/GluN2C NMDA receptors (Rattus norvegicus, UniProt Q00961); details: read-out: EC50 GluN2C; previously published data; cited from earlier work

What does the source list for `COc1ccc(OCC2c3ccc(OC)cc3CCN2C(=O)c2cccc(Cl)c2)cc1` (centres unmarked) [Compound 86]?
EC50 [1]: 1000 nM; EC50 [2]: 1300 nM
